What all share (experiment): peptide binding to HLA-DR dimer; EC50 ratio (<20 = high affinity, 20-100 = moderate affinity); method not described
The target in assay [1] is HLA-DR15 dimer (DR1501) (human).
The target in assay [2] is HLA-DR7 dimer (DR0701) (human).
For assay [3], the target named is HLA-DR11 dimer (DR1101) (human).
Assay [4] concerns the target HLA-DR3 dimer (DR0301) (human).

Consider CBir1 p456-475 (peptide), for which the EC50 Ratio is 0.32 in assay [1] and 3.7 in assay [2].

In the case of E. rectale Fla1 p445-464 (peptide), the EC50 Ratio in assay [3] stood at 0.3.

On to R. Intest. Fla1 p408-427 (peptide), for which the results for the EC50 Ratio in assay [3] and in assay [4] were 58 and 55, respectively.

Source of the values: patent publication US20220088145A1.
